Only a part is listed here, and it is no random draw. The source made the active and inactive calls.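 The calls were made as follows: active = inhibition above its plate's cutoff, the mean inhibition of sample wells plus 3 SD (cut at about 27% in these data); inactive = the rest.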

Chains of the proteins cited; added tags and fusions are not shown.
UniProt P08173, whole entry: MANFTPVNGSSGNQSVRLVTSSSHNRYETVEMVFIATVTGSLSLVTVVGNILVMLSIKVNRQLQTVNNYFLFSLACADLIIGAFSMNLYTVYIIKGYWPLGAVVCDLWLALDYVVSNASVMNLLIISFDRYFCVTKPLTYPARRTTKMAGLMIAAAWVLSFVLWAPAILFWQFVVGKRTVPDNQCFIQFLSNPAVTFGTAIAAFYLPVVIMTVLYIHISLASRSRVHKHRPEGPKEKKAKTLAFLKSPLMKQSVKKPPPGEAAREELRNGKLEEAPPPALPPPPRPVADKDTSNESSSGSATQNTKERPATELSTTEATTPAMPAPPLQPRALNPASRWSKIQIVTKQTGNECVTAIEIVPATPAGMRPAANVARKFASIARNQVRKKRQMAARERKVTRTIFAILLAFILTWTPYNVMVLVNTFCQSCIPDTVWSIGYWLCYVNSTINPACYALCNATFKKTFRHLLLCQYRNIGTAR

In general, inhibition refers to the relative decrease from the control value, in per cent.

The assay has as its target Muscarinic acetylcholine receptor M4 (Homo sapiens) (UniProt P08173). The assay can be described thus: CHRM4 blockers of acetylcholine calcium response – CHO cells, Fluo-8 calcium fluorescence, primary screen (AID 624125).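 Also: 0% = acetylcholine EC80 with DMSO and 100% = DMSO without agonist.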 As to conditions: CHO-hM4 cells, ACh EC80, Fluo-8 calcium fluorescence; at 3 µM; stronger effect = higher value.
Turning to `Fc1ccccc1NC1CCN(Cc2ccccc2)CC1`, the inhibition was inactive: -10.2%.

Turning to `Cc1ccc(C(=O)NCC2(N3CCCCC3)CCCCC2)o1`, the inhibition was inactive: 1.85%.

As to `CC(C)(C)n1nnnc1C(c1ccnc2ccccc12)N1CCC(n2c(=O)[nH]c3ccccc32)CC1` (centres undefined), the inhibition is inactive: -14.4%.

As to `COc1ccc(C(c2nnnn2C2CCCCC2)N2CCC(n3c(=O)[nH]c4ccccc43)CC2)cc1` (centres undefined), the inhibition is inactive: -7.51%.

As to `CCN1CCC(Nc2cccc(F)c2)CC1`, the inhibition was inactive: -14.2%.

As for `Cc1ccccc1NC1(C#N)CCN(Cc2ccccc2)CC1`, the inhibition was inactive: -3.07%.

Take `Cn1c(=O)[nH]cc(N(CCCl)CCCl)c1=O`: the inhibition is inactive: -3.67%.

In the case of `CN(C)c1ccc(C(=O)NCC2(N3CCCCC3)CCCCC2)cc1`, the inhibition was inactive: -14.4%.

With `O=C(NCC1(N2CCCCC2)CCCCC1)c1ccco1`, the inhibition was inactive: -3.42%.

As to `CN1CCC(Nc2ccc(F)c(Cl)c2)CC1`, the inhibition is inactive: 18.3%.

For the compound `CCOc1ncccc1C(=O)NCC1(N2CCOCC2)CCCCC1`, the inhibition was inactive: 0.51%.

Regarding `CCCOc1ccc(C(=O)NCC2(N(C)C)CCCCC2)cc1`, the inhibition was inactive: -1.07%.

Regarding `O=c1[nH]c2ccccc2n1C1CCN(C(c2cc3ccccc3o2)c2nnnn2C2CCCC2)CC1` (centres undefined), the inhibition is inactive: 14.1%.

Turning to `NN(c1ccccc1)C1CCN(CCc2ccccc2)CC1`, the inhibition is inactive: 11.2%.

As to `O=C(O)C1(Nc2ccccc2)CCN(Cc2ccccc2)CC1`, the inhibition is inactive: -4.52%.

As to `CC(C)(C)OC(=O)N1CCC(Nc2ccccc2)CC1`, the inhibition was inactive: 3.84%.

Regarding `COc1cccc(C(=O)N(c2cc(C)cc(C)c2)C2CCN(C(=O)OC(C)(C)C)CC2)c1`, the inhibition was inactive: 12.2%.

With `COc1cc(OC)cc(C(=O)NCC2(N3CCOCC3)CCCCC2)c1`, the inhibition was inactive: 2.01%.

Turning to `COc1cccc(C(c2nnnn2C2CCCC2)N2CCC(n3c(=O)[nH]c4ccccc43)CC2)c1OC` (centres undefined), the inhibition is inactive: 14.3%.

On to `CN1CCC(Nc2ccc(Cl)cc2)CC1`, for which the inhibition is inactive: 3.42%.

For `CCCCn1nnnc1C(c1cccs1)N1CCC(n2c(=O)[nH]c3ccccc32)CC1` (centres undefined), the inhibition is inactive: 26.2%.

Take `CCCCn1nnnc1C(CC)N1CCC(n2c(=O)[nH]c3ccccc32)CC1` (centres undefined): the inhibition is inactive: 5.53%.

In the case of `O=C(NCC1(N2CCCCC2)CCCCC1)c1cccs1`, the inhibition is inactive: 3.44%.

On to `O=C(NCC1(N2CCCCC2)CCCCC1)c1ccc(=O)[nH]c1`, for which the inhibition was inactive: 5.96%.

On to `CCC(c1nnnn1C1CCCC1)N1CCC(n2c(=O)[nH]c3ccccc32)CC1` (centres undefined), for which the inhibition is inactive: -19.2%.

Regarding `COc1ccc(C(=O)NCC2(N3CCCCC3)CCCCC2)c(OC)c1OC`, the inhibition was inactive: -10.1%.

Take `CC(C)(C)OC(=O)N1CCC(N(C(=O)c2ccccc2)c2ccc(F)cc2)CC1`: the inhibition was inactive: 2.51%.

Take `COc1ccc(C(=O)NCC2(N3CCCCC3)CCCCC2)cc1`: the inhibition is inactive: 2.84%.

As for `Cc1cccc(NC2(C#N)CCN(Cc3ccccc3)CC2)c1`, the inhibition is inactive: -2.51%.

For `CSc1ccccc1C(=O)NCC1(N2CCCCC2)CCCCC1`, the inhibition was inactive: 4.85%.

Turning to `O=C(NCC1(N2CCOCC2)CCCCC1)c1cc2ccccc2o1`, the inhibition is inactive: 1.84%.

Turning to `Cc1cc(C)cc(N(C(=O)c2ccccc2)C2CCN(C(=O)OC(C)(C)C)CC2)c1`, the inhibition was inactive: 3.67%.

Turning to `O=c1[nH]c2ccccc2n1C1CCN(C(c2ccccc2OC(F)(F)F)c2nnnn2C2CCCCC2)CC1` (centres undefined), the inhibition is inactive: -9.67%.

Consider `O=C(NCC1(N2CCCCC2)CCCCC1)c1ccc(Cl)nc1`, for which the inhibition is inactive: -4.22%.

In the case of `CCCCn1nnnc1C(c1ccc(OC)cc1)N1CCC(n2c(=O)[nH]c3ccccc32)CC1` (centres undefined), the inhibition was inactive: 2.64%.

As for `CCOC(=O)N1CCC(Nc2ccc(OC)cc2)CC1`, the inhibition was inactive: 4.93%.

Consider `COc1ccc(Cl)cc1C(=O)NCC1(N2CCOCC2)CCCCC1`, for which the inhibition is inactive: 0.07%.

On to `O=c1[nH]c2ccccc2n1C1CCN(C(c2cc3ccccc3o2)c2nnnn2C2CCCCC2)CC1` (centres undefined), for which the inhibition was inactive: 3.04%.

With `O=C(NCC1(N2CCCCC2)CCCCC1)c1ccc(Cl)s1`, the inhibition is inactive: -2.26%.

Regarding `N#CC1(Nc2ccccc2)CCN(Cc2ccccc2)CC1`, the inhibition was inactive: 0.55%.

In the case of `CCOc1ccc(C)cc1CN(CCCl)CCCl`, the inhibition is inactive: -3.59%.

Turning to `O=C1CCN(Cc2ccccc2)CC1`, the inhibition is inactive: -17.3%.

As for `CC(C)(C)n1nnnc1C(c1ccccc1)N1CCC(n2c(=O)[nH]c3ccccc32)CC1` (centres undefined), the inhibition was inactive: -13.6%.

For the compound `CCOC(=O)N1CCC(Nc2ccc(F)cc2)CC1`, the inhibition is inactive: 11.1%.

Take `COc1ccc(NC2CCN(CCc3ccccc3)CC2)c(OC)c1`: the inhibition is inactive: -1.43%.

For `O=C(NCC1(N2CCCCC2)CCCCC1)c1ccc(F)cc1`, the inhibition was inactive: 12.8%.

`CCCCOc1ccc(C(=O)NCC2(N3CCOCC3)CCCCC2)cc1`: the inhibition is inactive: -1.31%.

As to `CCCCn1nnnc1C(c1cc2ccccc2o1)N1CCC(n2c(=O)[nH]c3ccccc32)CC1` (centres undefined), the inhibition is inactive: -3.91%.

For `O=P1(N(CCCl)CCCl)SCCCS1`, the inhibition was inactive: -11.9%.

`O=c1[nH]c2ccccc2n1C1CCN(C(c2ccccc2)c2nnnn2C2CCCCC2)CC1` (centres undefined): the inhibition was inactive: 1.39%.

As to `O=c1[nH]c2ccccc2n1C1CCN(C(c2cccc3ccccc23)c2nnnn2C2CCCC2)CC1` (centres undefined), the inhibition is inactive: -2.11%.

`COc1cc(C(=O)NCC2(N(C)C)CCCCC2)ccc1OC(F)F`: the inhibition was inactive: -6.59%.

As to `CCOC(=O)N1CCC(Nc2cccc(C)c2)CC1`, the inhibition is inactive: -0.38%.

For `O=C(NCC1(N2CCCCC2)CCCCC1)c1ccc(OC(F)F)cc1`, the inhibition is inactive: 2.89%.

As to `CC(C)(C)n1nnnc1C(c1ccccc1OC(F)(F)F)N1CCC(n2c(=O)[nH]c3ccccc32)CC1` (centres undefined), the inhibition is inactive: -4.25%.

In the case of `O=C(NCC1(N2CCCCC2)CCCCC1)c1cccc([N+](=O)[O-])c1`, the inhibition was inactive: 1.27%.

As for `CSc1ccc(C(=O)NCC2(N3CCOCC3)CCCCC2)cc1`, the inhibition was inactive: -3.76%.

With `N#CC1(Nc2ccccc2)CCN(CCc2ccccc2)CC1`, the inhibition was inactive: -8.6%.

As to `O=c1[nH]c2ccccc2n1C1CCN(C(c2ccccc2OC(F)(F)F)c2nnnn2C2CCCC2)CC1` (centres undefined), the inhibition was inactive: -27.3%.

Turning to `CCN1CCC(Nc2ccc(Cl)cc2)CC1`, the inhibition is inactive: -0.81%.

With `O=C(NCC1(N2CCCCC2)CCCCC1)c1cccc(C(F)(F)F)c1`, the inhibition was inactive: 4.24%.

Turning to `CCCCn1nnnc1C(c1cccc2ccccc12)N1CCC(n2c(=O)[nH]c3ccccc32)CC1` (centres undefined), the inhibition was inactive: 0.34%.

For the compound `COc1ccc(NC2CCN(C(=O)OC(C)(C)C)CC2)cc1`, the inhibition is inactive: 4.32%.

Consider `CC(C)c1ccc(C(=O)NCC2(N3CCOCC3)CCCCC2)cc1`, for which the inhibition was inactive: -5.32%.

With `O=C(NCC1(N2CCOCC2)CCCCC1)c1cc(=O)[nH]c2ccccc12`, the inhibition is inactive: -8.88%.

`COc1cc(C(=O)NCC2(N3CCCCC3)CCCCC2)ccc1OC(F)F`: the inhibition is inactive: -13.9%.

As to `CN(C)c1cccc(C(=O)NCC2(N3CCCCC3)CCCCC2)c1`, the inhibition is inactive: -9.41%.

Regarding `COc1ccc(CN(CCCl)CCCl)cc1Cl`, the inhibition was inactive: -7.09%.

Consider `CCCCn1nnnc1C(c1ccccc1OC(F)(F)F)N1CCC(n2c(=O)[nH]c3ccccc32)CC1` (centres undefined), for which the inhibition is inactive: -7.34%.

Take `CC(C)c1ccc(NC2CCN(C(=O)OC(C)(C)C)CC2)cc1`: the inhibition was inactive: -11.4%.

As for `CCCCn1nnnc1C(c1ccnc2ccccc12)N1CCC(n2c(=O)[nH]c3ccccc32)CC1` (centres undefined), the inhibition is inactive: -7.71%.

Consider `O=C(NCC1(N2CCOCC2)CCCCC1)c1cc(F)c(F)cc1Cl`, for which the inhibition was inactive: -7.87%.

Turning to `CCC(c1nnnn1C(C)(C)C)N1CCC(n2c(=O)[nH]c3ccccc32)CC1` (centres undefined), the inhibition was inactive: -27.4%.

`COc1cc(OC)c(C(=O)NCC2(N(C)C)CCCCC2)cc1OC`: the inhibition was inactive: 2.71%.

As for `O=C(NCC1(N2CCCCC2)CCCCC1)c1cncc(Br)c1`, the inhibition was inactive: 8.66%.

In the case of `CN1CCC(Nc2cccc(F)c2)CC1`, the inhibition is inactive: 4.62%.

Regarding `CCCOc1ccc(C(=O)NCC2(N(C)C)CCCCC2)cc1OC`, the inhibition is inactive: -1.1%.

Turning to `Cc1ccc(C(=O)NCC2(N(C)C)CCCCC2)o1`, the inhibition is inactive: -22.8%.

Regarding `COc1ccc(C(c2nnnn2C2CCCC2)N2CCC(n3c(=O)[nH]c4ccccc43)CC2)cc1` (centres undefined), the inhibition is inactive: -4.19%.
